Results as given in EP0807626A1, “N-HYDROXYUREA DERIVATIVES” (Nikken Chemicals Company, Limited, priority 1995, dated 1996).

Target: T1, lipoxygenase (Rattus norvegicus, UniProt P12527)
T1 construct: the peritoneal cavities were lavaged and the polymorphonuclear leukocytes were recovered; endogenous in cells; host or cells: casein-elicited peritoneal polymorphonuclear leukocytes of Wistar male rats
T1 sequence (P12527 1-673): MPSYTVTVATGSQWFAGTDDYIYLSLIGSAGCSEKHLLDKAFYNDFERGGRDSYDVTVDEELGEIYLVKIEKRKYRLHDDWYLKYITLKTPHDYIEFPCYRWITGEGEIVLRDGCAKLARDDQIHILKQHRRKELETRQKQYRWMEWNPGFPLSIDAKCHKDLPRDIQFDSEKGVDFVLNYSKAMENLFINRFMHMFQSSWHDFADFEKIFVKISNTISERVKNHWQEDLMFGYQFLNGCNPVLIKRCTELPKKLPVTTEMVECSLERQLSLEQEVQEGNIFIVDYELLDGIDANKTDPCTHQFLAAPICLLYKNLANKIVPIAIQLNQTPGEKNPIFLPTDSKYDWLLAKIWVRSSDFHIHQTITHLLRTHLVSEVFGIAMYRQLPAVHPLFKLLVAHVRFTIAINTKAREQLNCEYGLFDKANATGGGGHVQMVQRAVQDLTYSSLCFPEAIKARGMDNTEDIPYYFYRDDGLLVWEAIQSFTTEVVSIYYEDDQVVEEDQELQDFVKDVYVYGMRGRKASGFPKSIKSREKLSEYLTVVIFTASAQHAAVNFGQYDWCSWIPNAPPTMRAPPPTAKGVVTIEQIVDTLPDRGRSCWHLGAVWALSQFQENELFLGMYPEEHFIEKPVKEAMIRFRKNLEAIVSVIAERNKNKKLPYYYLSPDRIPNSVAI
Assay: Test of lipoxygenase inhibitory action (production of leukotriene B4 in rat polymorphonuclear leukocytes)
Format: cell-based
Description: Using rat polymorphonuclear leukocytes, a test of the lipoxygenase inhibitory activity of the test compounds was determined the amount of production of leukotriene B4.
Wistar male rats (Japan Clea) were intraperitoneally administered with 12% sodium casein. After 16 hours, the peritoneal cavities were lavaged and the polymorphonuclear leukocytes were recovered. The obtained polymorphonuclear leukocytes were suspended in a phosphate buffer (137 mM NaCl, 3 mM KCl, 8 mM Na2HPO4, 2 mM KH2PO4) (2.5 × 10^5 cells/0.4 ml), then the incubation was carried out at 37°C for 10 minutes the test compound (final concentration 10^-5M) was added and then for 5 minutes after a calcium solution (10 mM CaCl2, 0.86% NaCl) 0.1 ml was added, then 1.25 µl of calcium ionophore (20 µM, A-23187) was added and the reaction started. Five minutes after the addition, 250 µl of methanol was added to stop the reaction. After the reaction was stopped, the resultant mixture was centrifuged for 20 minutes (4°C, 3000 rpm), then the amount of leukotriene B4 in the supernatant was measured by the EIA method (Cayman Co. kit).
As the test compound, the above mentioned Compound 1 to Compound 4, Compound 9 to Compound 11, Compound 22 to Compound 26, Compound 28, Compound 29, compound 32, Compound 33, and Compound 40 to Compound 48 were used. As the control, A-64077 was used.

## CC(c1cc2ccccc2s1)N(O)C(N)=O (stereo not shown) [Compound A-64077, reference compound]
  IC50: 1000 nM
